This note sets out measurements from paper PMC6561105 (Journal of medicinal chemistry, 2019).

Structures can show the parent of a compound that is named as a salt.

In the first experiment the test system is HOXA9/DNA binding (HBS, HOXA9-binding site). Also on record: species or system human. The note with it: ELISA-derived assay and EMSA, Figure 1; SAR discussion. In general terms: In an ELISA, binding on a coated surface is turned into a signal by an enzyme label.
Regarding “2-(5-(4-Carbamimidoylphenyl)thiophen-2-yl)quinoline-6-carboximidamide trihydrochloride [DB1504]”, the “HOXA9/DNA binding inhibition (in words)” value is recorded as “strongly alters its propensity to inhibit”.

Turning to `N=C(N)c1ccc(-c2ccc(-c3nc4cc(C(=N)N)ccc4[nH]3)o2)cc1` [DB293, reference compound], the “HOXA9/DNA binding inhibition (in words)” value is given as “strongly reduces HOXA9 inhibition efficacy”.

As to `N=C(N)c1ccc(-c2ccc(-c3nc4cc(C(=N)N)ccc4o3)o2)cc1` [DB828], the “HOXA9/DNA binding inhibition (in words)” value was “failed to inhibit”.

For the compound `N=C(N)c1ccc(-c2ccc(-c3nc4ccc(C(=N)N)cc4[nH]3)o2)nc1` [DB915, 2-[5-(5-Amidinopyridin-2-yl)furan-2-yl]-1H-benzimidazole-6-amidine acetate], the “HOXA9/DNA binding inhibition (in words)” value was “strongly reduces HOXA9 inhibition efficacy”.

Consider `Cn1c(-c2ccc(-c3ccc(C(=N)N)cc3)s2)nc2cc(C(=N)N)ccc21` [DB2429], for which the “HOXA9/DNA binding inhibition (in words)” value is “inactive”.

Consider `Cn1c(-c2ccc(-c3ccc(C(=N)N)cc3)o2)nc2cc(C(=N)N)ccc21` [DB2430], for which the “HOXA9/DNA binding inhibition (in words)” value was “inactive”.

On to `N=C(N)c1ccc(-c2cnc(-c3nc4ccc(C(=N)N)cc4[nH]3)s2)cc1` [DB2651, 2-(5-(4-Carbamimidoylphenyl)thiazol-2-yl)-1H-benzo[d]imidazole-6-carboximidamide trihydrochloride], for which the “HOXA9/DNA binding inhibition (in words)” value is “strongly reduces HOXA9 inhibition efficacy”.

For `CC(C)n1c(-c2ccc(-c3ccc(C(=N)N)cc3)s2)nc2cc(-c3ccc(C(=N)N)cc3)ccc21` [DB2708], the “HOXA9/DNA binding inhibition (in words)” value is reported as “strongly alters its propensity to inhibit”.

A further experiment deals with HOXA9/HBS complex. It is filed as binding, human.
Settings: not given
For the compound `N=C(N)c1ccc(-c2ccc(-c3nc4cc(C(=N)N)ccc4o3)o2)cc1` [DB828], the “sub-group for HOXA9/DNA binding inhibition” value was “inactive”.

With `N=C(Nc1ccc(-c2ccc(-c3ccc(NC(=N)c4ccccn4)cc3)[nH]2)cc1)c1ccccn1` [DB883], the “sub-group for HOXA9/DNA binding inhibition” value is “Medium”.

The experiment is the same for the next values; noted with them: 2.5 µM.
`N=C(Nc1ccc(-c2ccc(-c3ccc(NC(=N)c4ccccc4)cc3)[nH]2)cc1)c1ccccc1` [DB884]: the “inhibition of HOXA9/DNA binding” value was greater than 90%.

Regarding `N=C(N)c1ccc(-c2ccc(-c3cc4ccc(C(=N)N)cc4[nH]3)s2)cc1` [DB1879, 2-(5-(4-Carbamimidoylphenyl)thiophen-2-yl)-1H-indole-6-carboximidamide diydrochloride], the “inhibition of HOXA9/DNA binding” value is recorded as greater than 90%.

`N=C(N)c1ccc(-c2ccc(-c3cc4ccc(C(=N)N)cc4[nH]3)s2)nc1` [DB2529, 2-(5-(5-Carbamimidoylpyridin-2-yl)thiophen-2-yl)-1H-indole-6-carboximidamide trihydrochloride]: the “inhibition of HOXA9/DNA binding” value is listed as greater than 90%.

The subject of a further experiment is HOXA9 binding to Akap13-HBS sequence.
Settings: not given
Turning to `N=C(N)c1ccc(-c2ccc(-c3nc4ccc(C(=N)N)cc4[nH]3)s2)cc1` [DB818], the “inhibition of HOXA9 binding to Akap13-HBS” value is reported as “inhibited”.

Regarding `N=C(N)c1cccc(-c2ccc(-c3nc4cc(C(=N)N)ccc4[nH]3)cc2)c1` [DB1055], the “inhibition of HOXA9 binding to Akap13-HBS” value was “inhibited”.
